A short description of one data set: in vitro. To be noted: human.
The subject of a further data set is HBV replication. As to the kind of experiment: HBV replication inhibition in HepDES19 cells (strand-preferential qPCR). On the procedure:
Cells used for toxicity and HBV studies.
HBV replication inhibition studies. HepDES19 cells were seeded in 96-well plates at 4×10^4 cells per well in the absence of tetracycline. Test compounds in a final DMSO concentration of 1% were applied to cells 48 hours after induction of HBV replication and cells were incubated with compounds for 72 hours. Cells were washed in 200 μL of phosphate buffered saline (PBS) and lysed in 150 μL of core lysis buffer (10 mM Tris pH 7.4, 1% Tween20, 150 mM NaCl). Cells were incubated at room temperate on an orbital shaker at 350 rpm for 40 minutes. Cell lysate was transferred to a 96 well polymerase chain reaction (PCR) plate and centrifuged at 3300×g for 5 minutes. The supernatant (50 μL) from the cell lysate was transferred to a 96-well PCR plate and mixed with 20 units of micrococcal nuclease and 100 μM CaCl2. The lysate was incubated for 1 hour at 37° C., and then the nuclease was inactivated at 70° C. for ten minutes. Qiagen protease (0.005 Anson units) was added to the lysate and the mixture was incubated overnight. Qiagen protease was then inactivated at 95° C. for ten minutes.
The crude lysate was used as the template for strand-preferential quantitative polymerase chain reaction (q-PCR) analysis. Quantitative PCR was performed with 40 cycles of 95° C. for 15 s and 60° C. for 1 minute employing the Kappa Probe Force universal PCR master mix.
In general terms: In qPCR the cycle at which signal appears reflects the starting amount.

The next data set deals with T1, human RNaseH1 (Homo sapiens, UniProt O60930).
T1 sequence (O60930 1-286): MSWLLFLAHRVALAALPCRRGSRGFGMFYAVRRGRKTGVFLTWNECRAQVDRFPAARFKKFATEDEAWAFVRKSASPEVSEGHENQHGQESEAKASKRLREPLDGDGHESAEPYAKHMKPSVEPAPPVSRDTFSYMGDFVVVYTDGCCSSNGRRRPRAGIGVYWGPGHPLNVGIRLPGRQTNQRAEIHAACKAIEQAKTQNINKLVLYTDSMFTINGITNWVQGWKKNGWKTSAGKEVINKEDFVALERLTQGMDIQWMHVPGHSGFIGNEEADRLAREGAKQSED
In words: Biochemical inhibition of human RNaseH1 activity. To be noted: Hu RNaseH IC50, Table 3 sulfur compounds. On the procedure: Biochemical inhibition of human RNaseH1 activity. Quantitative inhibition of the human RNaseH1 in the biochemical assays was assessed using a molecular beacon assay as described previously (Edwards et al., 2017). Recombinant human RNaseH 1 (0.3 μg) was incubated with 100 nM RNA:DNA substrate, 50 mM HEPES pH 8.0, 100 mM NaCl, 2 mM Tris(2-carboxyethyl)phosphine hydrochloride (TCEP), 0.05% Tween20, 5 units of RNaseOut, test compounds (0 to 500 μM), and 5% DMSO in a 100 μL reaction volume. The substrate was formed by annealing a complementary RNA oligonucleotide to a hairpin DNA oligonucleotide to hold the hairpin DNA oligonucleotide in an open conformation. The DNA oligonucleotide has a 5′ fluorescein reporter and a 3′ black hole quencher. […] Reactions were initiated with 5 mM MgCl2 and fluorescence was read using a Synergy HTS multi-mode plate reader at 37° C. […] Quantitative inhibition of the human RNaseH1 in biochemical assays was assessed using a FRET-based RNaseH assay under conditions previously reported for an RNaseH molecular beacon assay (Edwards et al., 2017). […] Cleavage of the RNA strand released the fluorescein from quenching, increasing fluorescence. Reactions were monitored for 90 min at 37° C. in a plate reader and initial reaction rates were calculated. […]

Take `Cc1cc(O)c(=O)c(O)cc1S(=O)(=O)c1ccccc1` [compound 336]: in “in vitro”, the CC50 at 24 h stood at 45.4 µM. Moreover, the “Therapeutic index (CC50/EC50) for HBV (TI, SI)” value with HBV replication amounted to 67.

On to `CS(=O)(=O)c1cccc(O)c(=O)c1O` [compound 387], for which the “Therapeutic index (CC50/EC50) for HBV (TI, SI)” value in the data set on HBV replication was determined as 78.

The term IC50 denotes the concentration needed to halve the response being measured. Consider `CC(C)Sc1cccc(O)c(=O)c1O` [compound 695], for which the concentration for half-maximal inhibition (IC50) on human RNaseH1 amounted to 130 µM.
